Tested on: K562
Assay: Cytotoxicity against human K562 cells assessed as growth inhibition after 96 hrs by Giemsa staining-based light microscopy
Format: functional, cell-based
Settings: K562, 96 h

With `COc1cc(C(=O)c2ccn(-c3cccc(NS(C)(=O)=O)c3)c2)cc(OC)c1OC` as the compound, how does the IC50 read?
Its IC50 is 19 nM.

— ChEMBL document CHEMBL3351435, “New pyrrole derivatives with potent tubulin polymerization inhibiting activity as anticancer agents including hedgehog-dependent cancer” (J Med Chem, 2014)
